The target in assay [1] is T1, Polyunsaturated fatty acid 5-lipoxygenase (Homo sapiens, UniProt P09917).
T1 sequence (P09917 whole entry): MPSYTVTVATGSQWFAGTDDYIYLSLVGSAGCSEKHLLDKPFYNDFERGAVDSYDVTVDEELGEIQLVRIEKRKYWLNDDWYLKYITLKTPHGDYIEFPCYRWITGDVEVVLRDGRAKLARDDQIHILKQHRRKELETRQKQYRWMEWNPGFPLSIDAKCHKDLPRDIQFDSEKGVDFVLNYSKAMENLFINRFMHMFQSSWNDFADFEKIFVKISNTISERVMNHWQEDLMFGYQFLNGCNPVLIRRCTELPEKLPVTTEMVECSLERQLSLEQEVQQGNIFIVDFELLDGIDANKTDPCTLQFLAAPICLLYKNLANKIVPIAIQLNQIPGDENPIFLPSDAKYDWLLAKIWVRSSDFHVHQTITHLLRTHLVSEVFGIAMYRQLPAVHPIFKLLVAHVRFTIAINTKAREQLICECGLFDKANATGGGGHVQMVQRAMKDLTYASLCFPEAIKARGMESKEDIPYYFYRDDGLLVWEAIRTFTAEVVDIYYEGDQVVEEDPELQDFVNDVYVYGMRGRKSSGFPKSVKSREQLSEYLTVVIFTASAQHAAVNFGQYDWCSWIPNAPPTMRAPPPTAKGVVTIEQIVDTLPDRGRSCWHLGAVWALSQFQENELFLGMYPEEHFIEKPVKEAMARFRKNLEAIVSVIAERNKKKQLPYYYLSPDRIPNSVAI
In words: Inhibition of 5-lipoxygenase from human whole blood. The assay is classed as tissue-based. Put shortly: (§1)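 Eicosanoid generation measured to assess 5-LO inhibition. IC50 from iterative four-parameter curve fit. Data reported as mean ± SE with the number of determinations; where only two runs were made, both values are given.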

For assay [2], the target named is T1, Polyunsaturated fatty acid 5-lipoxygenase. Briefly: Inhibitory concentration against 5-lipoxygenase from human whole blood. The format is tissue-based. Put shortly: as §1

In general, IC50 refers to the concentration at which inhibition is half-maximal. A higher IC50 goes with weaker potency.

In assay [1], `Cn1c(=O)ccc2cc(COc3cccc(C4(CO)CCOCC4)c3)ccc21` showed an IC50 of 2300 nM. The compound `CC[C@](COC)(OC)c1cc(F)cc(OCc2ccc3c(ccc(=O)n3C)c2)c1` came in with an IC50 in assay [2] of 70 nM.

Source of the values: ChEMBL document CHEMBL1127840, “Conformational analysis of 5-lipoxygenase inhibitors: role of the substituents in chiral recognition and on the active conformations of the (methoxyalkyl)thiazole and methoxytetrahydropyran series” (J Med Chem, 1994).
